Experimental data published in patent publication US20220127585A1.

T1: B-Raf kinase, P15056
T1 chain: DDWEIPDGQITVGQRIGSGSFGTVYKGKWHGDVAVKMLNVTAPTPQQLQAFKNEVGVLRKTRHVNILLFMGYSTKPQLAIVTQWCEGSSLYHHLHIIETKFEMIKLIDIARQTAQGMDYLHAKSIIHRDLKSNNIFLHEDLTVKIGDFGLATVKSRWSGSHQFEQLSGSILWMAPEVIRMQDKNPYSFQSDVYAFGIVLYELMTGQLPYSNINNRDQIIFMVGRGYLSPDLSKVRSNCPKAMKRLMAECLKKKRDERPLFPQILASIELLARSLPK


Target: T1, B-Raf kinase, P15056
Experiment: ITC

| Kd [µM] | Binder |
| --- | --- |
| 0.35 | VLRKTRHVNILLFMG (modifications not checked) [SEQ ID NO: 17 (…)] |
| 14.9 | GVLRKARHVNILLFMGYST (modifications not checked) [SEQ ID NO: 8] |
